According to patent publication US11666630B2, “Polypeptides for managing viral infections” (priority 2016, dated 2023):
In brackets after ≈: the same amount, converted by molar mass. Peptide text beside a SMILES is read from it.

Legend:
[1] = test system: ZIKV (PRVABC59 strain); settings: 2 h
[2] = test system: ZIKV; test: Transmission electron microscopy of peptide-treated ZIKV; settings: 200 μM peptide, 10 min treatment

## CC[C@H](C)[C@H](NC(=O)[C@@H](NC(=O)CNC(=O)[C@H](CC(C)C)NC(=O)[C@H](Cc1ccccc1)NC(=O)[C@H](Cc1ccccc1)NC(=O)[C@H](CC(C)C)NC(=O)[C@H](CC(C)C)NC(=O)[C@H](CC(C)C)NC(=O)[C@H](CCSC)NC(=O)[C@@H](N)CO)[C@@H](C)O)C(=O)N[C@@H](CO)C(=O)N[C@@H](CC(C)C)C(=O)N[C@@H](CO)C(=O)N[C@@H](CC(C)C)C(=O)N[C@@H](CS)C(=O)N[C@@H](CCC(N)=O)C(=O)N[C@@H](CC(=O)O)C(=O)N[C@@H](CC(=O)O)C(=O)N[C@@H](CCC(N)=O)C(=O)N[C@@H](CCC(=O)O)C(=O)N[C@@H](CCCNC(=N)N)C(=O)N[C@@H](CS)C(=O)O [Yodha peptide] (H-SMLLLFFLGTISLSLCQDDQERC-OH; N-terminus and C-terminus assumed)
[1]
  IC50 against ZIKV: 52 µg/mL (≈ 19.7 µM)
[2]
  morphology of ZIKV particles (electron microscopy): loss of morphology and aggregation of virus particles
